Measured values published in ChEMBL document CHEMBL1141564, “Meriolins (3-(pyrimidin-4-yl)-7-azaindoles): synthesis, kinase inhibitory activity, cellular effects, and structure of a CDK2/cyclin A/meriolin complex” (J Med Chem, 2008).

Key:
SH-SY5Y = assay: cells; conditions: Homo sapiens, 48 h
KMS-11 = assay: cells; conditions: Homo sapiens, KMS-11, 48 h
[1] = target: Cyclin-dependent kinase 2/cyclin A (Homo sapiens, UniProt P24941); assay: Inhibition of human recombinant CDK2/cyclin A expressed in insect cells

Compound `CC(C)Oc1ccnc2[nH]cc(-c3ccnc(N)n3)c12` [MERIOLIN 6] has an IC50 (SH-SY5Y) of 38 nM, an IC50 (KMS-11) of 40 nM and an IC50 [1] of 5.1 nM.
